By UniProt entry, the sequences of proteins in these tests, tags left out.
UniProt P28647, whole entry: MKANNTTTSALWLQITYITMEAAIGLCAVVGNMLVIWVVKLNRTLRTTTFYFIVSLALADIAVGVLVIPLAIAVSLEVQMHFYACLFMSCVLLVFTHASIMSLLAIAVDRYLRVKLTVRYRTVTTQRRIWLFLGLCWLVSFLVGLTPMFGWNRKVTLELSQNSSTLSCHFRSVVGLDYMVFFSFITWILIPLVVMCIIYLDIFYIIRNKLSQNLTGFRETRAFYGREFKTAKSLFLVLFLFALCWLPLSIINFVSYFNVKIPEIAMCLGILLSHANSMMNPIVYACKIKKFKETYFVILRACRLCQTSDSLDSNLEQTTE

According to ChEMBL document CHEMBL3826885, “Similarities and differences in affinity and binding modes of tricyclic pyrimido- and pyrazinoxanthines at human and rat adenosine receptors” (Bioorg Med Chem, 2016):

Columns and labels:
Adenosine receptor A3 = Adenosine receptor A3 (Rattus norvegicus, UniProt P28647); test: Displacement of [3H]NECA from recombinant rat adenosine receptor A3 expressed in CHO cell membranes
Method in brief: (§1)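 Membranes came from CHO cells expressing recombinant receptors (human A1, A2A, A2B, A3; rat A2B, A3). Radioligands were [3H]CCPA for A1 and [3H]PSB-11 or [3H]NECA for A3. A single high concentration was screened first, in three experiments for A1/A2A and two for A2B/A3. Full inhibition curves spanning at least 3 log units were run for potent compounds.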

[1] = target: T1, Adenosine receptor A2b (Homo sapiens) (UniProt P29275); test: Displacement of [3H]PSB-603 from recombinant human adenosine receptor A2b expressed in CHO cell membranes at 1 uM; method in brief: as §1
T1 sequence (whole entry): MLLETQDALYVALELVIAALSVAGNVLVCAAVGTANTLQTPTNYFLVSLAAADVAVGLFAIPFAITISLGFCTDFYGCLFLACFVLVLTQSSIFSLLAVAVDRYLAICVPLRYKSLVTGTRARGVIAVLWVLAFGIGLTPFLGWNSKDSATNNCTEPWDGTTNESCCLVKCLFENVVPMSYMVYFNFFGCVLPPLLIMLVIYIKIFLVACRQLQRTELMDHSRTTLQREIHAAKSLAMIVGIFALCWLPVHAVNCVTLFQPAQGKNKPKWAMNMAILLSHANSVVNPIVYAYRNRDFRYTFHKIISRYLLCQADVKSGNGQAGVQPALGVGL

SMILES	Ki (Adenosine receptor A3)	inhibition [1]
CCn1c(=O)c2c(nc3n2CCCN3CCc2ccc(O)cc2)n(CC)c1=O	> 1000 nM	–
Cn1c(=O)c2c(nc3n2CCN(CCc2ccc(O)cc2)C3)n(C)c1=O	–	11%
